By EC50 is commonly meant the midpoint of the concentration-response curve. High values mean a need for much substance, low ones an effect from little substance.

This assay has as its target Opioid receptor (Rattus norvegicus, UniProt P33533+P34975+P33535). Description: Displacement of [3H]dalamid ([D-Ala2,Met5] enkephalinamide) from opioid receptors of rat brain membrane. Background: Loss of bound radioactivity is the signal in a displacement assay; it reports binding, not function.
In turn, `C=CCN1CC[C@]23c4c5ccc(O)c4O[C@H]2C2(OC)C=C[C@@]3(C[C@@H]2NC(=O)/C=C/C(=O)OC)[C@H]1C5.O=C(O)C(=O)O` yielded an EC50 of 90 nM.

Turning to `C=CCN1CC[C@]23c4c5ccc(O)c4O[C@H]2C2(OC)C=C[C@@]3(C[C@@H]2N=S)[C@H]1C5.O=C(O)C(=O)O`, it took 100 nM to reach a half-maximal effect (EC50). In turn, `C=CCN1CC[C@]23c4c5ccc(O)c4O[C@H]2C2(OC)C=C[C@@]3(C[C@@H]2NC(=O)CBr)[C@H]1C5.O=C(O)C(=O)O` showed an EC50 of 90 nM. With `C=CCN1CC[C@]23c4c5ccc(O)c4O[C@H]2C2(OC)C=C[C@@]3(C[C@@H]2N)[C@H]1C5.O=C(O)C(=O)O`, the half-maximal effective concentration (EC50) is 50 nM.

The record behind these values is ChEMBL document CHEMBL1123259, “Probes for narcotic receptor mediated phenomena. 13. Potential irreversible narcotic antagonist-based ligands derived from 6,14-endo-ethenotetrahydronororipavine with 7-(methoxyfumaroyl)amino, (bromoacetyl)amino, or isothiocyanate electrophiles: chemistry, biochemistry, and pharmacology” (1986).
